Assay [1] addresses DAT (Rattus norvegicus, UniProt P23977). The assay is described as follows: DAT radioligand binding in rat striatum ([3H]-WIN35,428 competition). The settings on record: ratio of SERT Ki to DAT Ki; tested form: dihydrochloride monohydrate.
The target of assay [2] is SERT (Rattus norvegicus, UniProt P31652). The assay is described as follows: SERT radioligand binding in rat midbrain ([3H]-Citalopram competition). The settings on record: read-out: SERT (rat mid-brain-stem) Ki ± SEM, rat midbrain/brain stem membranes, mean ± SEM, tested form: dihydrochloride monohydrate.
Assay [3] concerns the target σ1R (Cavia porcellus, UniProt Q60492). The assay is described as follows: σ1R radioligand binding in guinea pig cortex ([3H]-(+)-Pentazocine competition). Conditions: tested form: dihydrochloride monohydrate.

Protein sequences, listed by entry. Tags and fused reporters are not part of them.
UniProt P23977, whole entry: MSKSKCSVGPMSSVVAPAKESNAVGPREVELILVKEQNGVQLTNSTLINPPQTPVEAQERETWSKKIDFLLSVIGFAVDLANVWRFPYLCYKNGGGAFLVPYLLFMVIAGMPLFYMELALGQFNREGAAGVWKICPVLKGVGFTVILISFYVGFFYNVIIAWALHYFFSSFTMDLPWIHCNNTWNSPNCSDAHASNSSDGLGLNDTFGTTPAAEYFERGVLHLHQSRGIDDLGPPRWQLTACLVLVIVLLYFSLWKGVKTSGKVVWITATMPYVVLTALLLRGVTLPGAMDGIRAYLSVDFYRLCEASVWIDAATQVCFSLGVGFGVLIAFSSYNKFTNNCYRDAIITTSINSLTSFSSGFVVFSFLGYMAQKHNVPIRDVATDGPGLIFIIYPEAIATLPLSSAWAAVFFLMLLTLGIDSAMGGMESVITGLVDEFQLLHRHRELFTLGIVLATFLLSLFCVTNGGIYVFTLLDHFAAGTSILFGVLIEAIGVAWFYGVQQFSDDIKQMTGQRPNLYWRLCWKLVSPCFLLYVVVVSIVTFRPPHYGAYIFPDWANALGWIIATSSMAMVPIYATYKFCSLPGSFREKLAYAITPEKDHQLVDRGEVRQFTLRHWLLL
UniProt P31652, whole entry: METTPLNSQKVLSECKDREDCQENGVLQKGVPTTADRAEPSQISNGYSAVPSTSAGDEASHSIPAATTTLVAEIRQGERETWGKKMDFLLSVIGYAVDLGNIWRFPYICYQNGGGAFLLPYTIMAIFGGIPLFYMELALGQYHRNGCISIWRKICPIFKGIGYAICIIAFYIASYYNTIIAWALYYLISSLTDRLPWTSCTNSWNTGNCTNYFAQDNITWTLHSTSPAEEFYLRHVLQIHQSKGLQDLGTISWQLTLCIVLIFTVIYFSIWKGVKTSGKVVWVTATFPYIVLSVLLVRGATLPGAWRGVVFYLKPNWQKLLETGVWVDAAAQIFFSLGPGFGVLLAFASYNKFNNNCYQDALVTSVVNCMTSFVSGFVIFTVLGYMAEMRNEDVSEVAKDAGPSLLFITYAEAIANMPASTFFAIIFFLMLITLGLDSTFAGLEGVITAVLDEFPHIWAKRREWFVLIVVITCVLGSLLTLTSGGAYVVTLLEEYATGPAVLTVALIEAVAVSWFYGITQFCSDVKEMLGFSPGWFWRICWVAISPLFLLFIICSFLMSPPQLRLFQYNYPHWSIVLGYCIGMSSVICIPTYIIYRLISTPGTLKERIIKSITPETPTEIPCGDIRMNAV
UniProt Q60492, whole entry: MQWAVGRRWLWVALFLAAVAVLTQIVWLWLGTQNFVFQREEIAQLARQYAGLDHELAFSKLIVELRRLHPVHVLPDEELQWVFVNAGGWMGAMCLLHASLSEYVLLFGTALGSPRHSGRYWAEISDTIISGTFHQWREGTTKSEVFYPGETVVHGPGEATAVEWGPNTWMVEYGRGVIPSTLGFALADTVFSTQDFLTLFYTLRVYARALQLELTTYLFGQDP

As for `Fc1ccc(C(SCCNC2CCN(Cc3cc4ccccc4o3)CC2)c2ccc(F)cc2)cc1`, in assay [1], the SERT/DAT is given as 5.76. In assay [2], the Ki came out at 0.691 µM. Further, the σ1/DAT in assay [3] (ratio of σ1 to DAT affinity values) was found to be 1.71. Moreover, the σ1/SERT in assay [3] (ratio of σ1 to SERT affinity values) was 0.30. For the same compound, in assay [3] (read-out: σ1 (Guinea Pig Cortex) Kd ± SEM, guinea pig cortex membranes, [3H]-(+)-Pentazocine, mean ± SEM), the Kd amounted to 0.205 µM.

For the origin of these results see patent US11365195B2, “Atypical inhibitors of monoamine transporters; method of making; and use thereof” (THE UNITED STATES OF AMERICA, AS REPRESENTED BY THE …, priority 2017, dated 2022).
